Results: patent publication US20120177632A1, “METHODS OF OPTIMIZING DISEASE TREATMENT” (priority 2011, published 2012)

B1: IFN-β: interferon-β as worded without preparation; first-line therapy for MS; in the examples rIFNβ in vitro, IFNβ-1b in vivo (protein, UniProt P01574 22-187, looked up)
Interferon beta: MSYNLLGFLQRSSNFQCQKLLWQLNGRLEYCLKDRMNFDIPEEIKQLQQFQKEDAALTIYEMLQNIFAIFRQDSSSTGWNETIVENLLANVYHQINHLKTVLEEKLEKEDFTRGKLMSSLHLKRYYGRILHYLKAKEYSHCAWTIVRVEILRNFYFINRLTGYLRN
B2: IFNβ-1b: human recombinant IFN-β-1b (Betaseron®), produced in E. coli (protein, UniProt P01574 22-187, looked up)
Interferon beta: B1 Interferon beta

Key:
NADPH oxidase = assay: p47phox foci (active NADPH oxidase) in bone marrow-derived macrophages, confocal microscopy; assay type: cell-based, mouse; settings: WT BMMs; 24 h pretreatment, then 5 mM ATP 1 h
Procedure: IFNAR signaling inhibits ROS production by inhibiting NADPH oxidase activity. […] Cells incubated with and without IFN-β pretreatment for 24 hours were then exposed to 5 mM ATP for 1 hour, fixed, and probed with a FITC-conjugated anti-p47^phox antibody to detect foci representing active NADPH oxidase.

Vav1 = Vav1 expression in bone marrow-derived macrophages (western blot); assay type: cell-based, mouse; settings: WT BMMs; 1000 units/ml 24 h pretreatment, then 5 mM ATP 1 h
Procedure: (§1) Bone marrow-derived macrophages from wild-type mice were pretreated with 1000 units/ml rIFNα for 24 hours before treatment with 5 mM ATP for one hour. Cell lysates were prepared for western blot as described above and probed for Vav1 expression using a using a rabbit anti-Vav1 antibody (Cell Signaling Technology), followed by an HRP-conjugated donkey anti-rabbit antibody (Pierce) and chemiluminescent detection (ECL reagents, GE Healthcare). The same membranes were stripped and probed again by western blot to detect β-actin, and Vav1 signal densitometry for each sample was normalized to β-actin using NIH Image/Image J software. […] Bone marrow-derived macrophages obtained from wild-type mice were pretreated with 1,000 units/ml rIFNα or IFNβ for 24 hours before treatment with 5 mM ATP for 5, 10, or 15 minutes. Cells were then lysed, and total GTP-Rac1 was compared to GTP-Rac1 by western blot first using an antibody specific for GTP-Rac1, followed by membrane stripping and probing with an antibody recognizing total Rac1. GTP-Rac1 signal densitometry for each sample was normalized to total Rac1 using NIH Image/Image J software.

multiple sclerosis [1] = assay: Clinical response of MS patients to IFN-β therapy; assay type: in vivo, human; settings: clinical data, not shown
NLRP3 inflammasome = NLRP3 inflammasome activity in vivo in EAE mice (serum IL-1β, splenocyte IL-1β, caspase-1 p20); parameters: species or system mouse
Procedure: EAE was induced in Asc−/−, Nlrp3−/−, and wild-type mice. For EAE induction, MOG35-55 peptide (100 μg/mouse) was emulsified with CFA (100 μl/mouse, including 200 μg of heat-killed Mycobacteria), and subcutaneously injected in the flanks of mice on day 0. Mice were also i.p. injected with Pertussis toxin (200 ng/200 μl PBS/mouse) on days 0 and 2. Representative data from one of three independent experiments with disease scores presented as mean±SEM for each group (n=5). (FIGS. 3(b), (c)). […] Numbered squares indicate representative regions of cell infiltration (H&E) and demyelination (LFB) shown at high magnification. Arrowheads indicate regions of demyelination. The NLRP3-inflammasome is activated during EAE progression. Serum IL-1β (FIG. 3(e)) and IL-18 (FIG. 3(f)) levels in wild-type, Asc−/−, and Nlrp3−/− mice were measured by ELISA using standard techniques on days 9 and 17 after EAE induction. IL-1β production was greater in splenocytes isolated from wild-type than Asc−/− mice 9 days after EAE induction. Cells were treated with Ultrapure LPS (100 ng/ml) alone for 24 hours, and secreted IL-1β was measured in the cell culture media using standard techniques.
Caspase-1 p20 and β-actin were detected in 24-hr total splenocyte culture supernatants and cell lysates, respectively, by western blot using standard techniques. […]

GTP-Rac1 = GTP-Rac1 level in bone marrow-derived macrophages (western blot); assay type: cell-based, mouse; settings: WT BMMs; 1,000 units/ml 24 h pretreatment, then 5 mM ATP 5, 10 or 15 min
Procedure: as §1

NLRP3-independent EAE = NLRP3-independent EAE in WT mice by aggressive induction regimen; assay type: in vivo, mouse; settings: aggressive induction (MOG day 0 and 7, 400 μg Mtb)
SOCS-1 = assay: SOCS-1, IP10 and Mx1 mRNA in bone marrow-derived macrophages (quantitative RT-PCR); assay type: cell-based; settings: WT BMMs; 1,000 units/ml recombinant mouse IFN-β or 10,000 units/ml IFN-β-1b, 6 h
Procedure: IFN-β mediates its effects on NADPH oxidase activity through SOCS-1. First, IFN-β induces SOCS-1 expression. Bone marrow-derived macrophages derived from wild-type mice were incubated with no treatment, 1,000 units/ml recombinant mouse IFN-β, or 10,000 units/ml human recombinant IFN-β-1b (Betaseron®) for 6 hours. Total RNA was purified from each group of cells using TRIzol® reagent (Invitrogen™), and SOCS-1, IP10, and Mx1 mRNA in each sample was measured by quantitative RT-PCR, and values were normalized to the sample with no IFN-β exposure. […] In addition, a decrease in SOCS-1 expression increases cellular levels of Vav1 and GTP-Rac1. Mouse bone marrow-derived macrophages were transduced with a lentiviral expression vector expressing a shRNA that decreases SOCS-1 expression (see FIG. 2(g)). Four hours later, rIFN-β was added (1,000 units/ml), and the cells were incubated for 24 hours. […] SOCS-1 also mediates inhibition of ROS and IL-1β production by IFN-β. Bone marrow-derived macrophages were treated with 100 ng/ml Ultrapure LPS and 5 mM ATP, with or without lentiviral transduction with the anti-SOCS-1 shRNA. ROS was detected by flow cytometry as described, see FIG. 2(k), and IL-1β secretion was detected by ELISA using standard techniques, see FIG. 2(l). In addition, SOCS-1 associates with Rac1-GTP as detected by immunoprecipitation. […]

multiple sclerosis [2] = settings: background statement; cited from earlier work
passive EAE = assay: Passive EAE by adoptive transfer of CD4+ T cells into Rag2-/- mice; assay type: in vivo, mouse
[3] = tested on: experimental autoimmune encephalomyelitis; assay: EAE induced with MOG35-55/CFA/Mtb in wild-type, Nlrp3-/- and Asc-/- mice; assay type: in vivo; settings: 300 μg Mtb, 0.3×10^5 unit/mouse i.p. every other day, day 0 to 10

Row | Molecule | average number of p47phox foci per cell (NADPH oxidase) | frequency of cells exhibiting p47phox foci (NADPH oxidase) | Vav1 expression (Vav1) | efficacy of therapy in MS patients who also develop optic neuritis (multiple sclerosis [1]) | NLRP3 inflammasome activity in vivo (IL-1β and activated caspase-1 levels) (NLRP3 inflammasome; WT mice with EAE, day 9) | cellular levels of GTP-Rac1 (Rac1 activation) (GTP-Rac1) | EAE development (NLRP3-independent EAE) | SOCS-1 mRNA expression (SOCS-1) | proportion of MS patients that are non-responders (multiple sclerosis [2]) | EAE development (passive EAE; Rag2-/- recipients of CD4+ T cells from EAE mice, no adjuvant) | NLRP3 inflammasome activity (IL-1β, caspase-1 p20) (passive EAE; Rag2-/- recipients, splenic macrophages 23 days after T cell transfer) | EAE severity ([3]; Asc-/- mice) | EAE severity ([3]; Nlrp3-/- mice) | EAE severity ([3]; wild-type mice) | active caspase-1 p20 levels in splenocytes (NLRP3 inflammasome; WT mice 9 days after EAE induction, 0.3×10^5 unit/mouse i.p. every other day)
1 | B1 | reductions | reductions | downregulating Vav1 expression | does not work | suppressed NLRP3 inflammasome activity in vivo | decreases cellular levels of GTP-Rac1 | does not work | increased to a similar degree as IP10 and Mx1 | approximately one-third | successfully treated | suppression of NLRP3 inflammasome activity | – | – | – | –
2 | B2 | – | – | – | – | – | – | – | – | – | – | – | not ameliorated | not ameliorated | ameliorated EAE | decreased active caspase-1 p20 levels
